Data reported in patent US4018930A, “Substituted indolobenzazepines” (Endo Laboratories, Inc., priority 1975, dated 1977).
Counter-ions that a name gives are not always drawn.

Legend:
mice [1] = assay: Ptosis (Pto.), primary rodent screen; type: in vivo, mouse; conditions: po, read-out: Pto. ED50 (ptosis)
mice [2] = assay: Phenylquinone Writhing (P.Q.W.) test, analgesic activity; type: in vivo, mouse; conditions: 0.5 h, po, read-out: P.Q.W. ED50 (analgesic ED50)
Procedure: The analgesic activity of the compounds of the present invention is conveniently determined in a phenylquinone writhing test, as described below:
Phenylquinone Writhing (P.Q.W.):
results given in: mg/kg po/mouse
Groups of at least 10 mice are given phenyl-p-benzoquinone 2.5 mg/kg intraperitoneally 30 minutes after oral administration of graded doses of the test substance. Two or more dose levels are used for each compound. For scoring purposes, a "writhe" is defined as stretching, twisting of a hindleg inward, or contraction of the abdomen. The total number of writhes for each animal, treated and control animals side-by-side, are counted over a 30-minute time interval. […] The P.Q.W. test is widely used as an indicator of potential analgesic activity in man, especially for non-narcotic substances.

mice [3] = assay: Decreased Locomotor Activity (L.M.A.), primary rodent screen; type: in vivo, mouse; conditions: po, read-out: L.M.A. ED50 (decreased locomotor activity)
Solubility in water = type: physicochemical
[4] = mouse, phenyl-p-benzoquinone 2.5 mg/kg ip 30 min after dose, 30-minute count
[5] = mouse, oral dose producing score of at least -1

Row | SMILES | ED50 (mice [1]; mouse, passive ptosis) | ED50 (mice [2]; [4]) | LD50 (in vivo) | ED50 (mice [3]; [5]) | ED50 (mice [1]; Mus musculus) | ED50 (mice [3]; Mus musculus) | ED50 (mice [2]; Mus musculus) | solubility in water (Solubility in water)
1 | O=C(CCN1CC[C@@H]2[C@@H](C1)c1cccc3c1N2c1ccccc1CC3)c1ccccc1 (racemic) [Example 8, (±)-3-(trans-1,2,3,4,4a,8,9,14a-octahydropyrido[4',3':2,3]indolo[1,7-ab][1]benzazepin-3-yl)propiophenone] | 20 mg/kg | 26 mg/kg | > 324 mg/kg | 200 mg/kg | – | – | – | –
2 | CN(C)CCCN1c2ccccc2Sc2ccc(Cl)cc21 [chlorpromazine (HCl), chlorpromazine, reference compound] | – | – | – | – | 6 mg/kg | 5 mg/kg | – | –
3 | CC(=O)CCN1CC[C@@H]2[C@@H](C1)c1cccc3c1N2c1ccccc1CC3 (racemic) [Example 6, (±)-4-(trans-1,2,3,4,4a,8,9,14a-octahydropyrido[4',3':2,3]indolo[1,7-ab][1]benzazepin-3-yl)-2-butanone] | 7.1 mg/kg | 1.25 mg/kg | > 324 mg/kg | 8 mg/kg | – | – | – | –
4 | CC(Cl)=CCN1CC[C@@H]2[C@@H](C1)c1cccc3c1N2c1ccccc1CC3 (racemic) [Example 1, (±)-trans-3-(3-chloro-2-butenyl)-1,2,3,4,4a,8,9,14a-octahydropyrido[4',3':2,3]indolo[1,7-ab][1]benzazepine] | > 300 mg/kg | 86 mg/kg | > 300 mg/kg | > 300 mg/kg | – | – | – | –
5 | COc1ccc2c3c1O[C@H]1[C@@H](O)C=C[C@H]4[C@@H](C2)N(C)CC[C@@]341 [codeine phosphate, reference compound] | – | – | – | – | – | – | 19 mg/kg | –
6 | CC(=O)CCCN1CC[C@@H]2[C@@H](C1)c1cccc3c1N2c1ccccc1CC3 (racemic) [Example 7, (±)-5-(trans-1,2,3,4,4a,8,9,14a-octahydropyrido[4',3':2,3]indolo[1,7-ab][1]benzazepin-3-yl)-2-pentanone] | 1.3 mg/kg | 1.4 mg/kg | > 324 mg/kg | 2.6 mg/kg | – | – | – | –
7 | CC(=O)CN1CC[C@@H]2[C@@H](C1)c1cccc3c1N2c1ccccc1CC3 (relative stereo) [Example 3, (±)-trans-3-acetonyl-1,2,3,4,4a,8,9,14a-octahydropyrido[4',3':2,3]indolo[1,7-ab][1]benzazepipine] | 4 mg/kg | 2 mg/kg | > 300 mg/kg | 2 mg/kg | – | – | – | –
8 | c1ccc2c(c1)CCc1cccc3c4c(n-2c13)CCNC4 [1,2,3,8,9-hexahydropyrido[4',3':2,3]=indolo[1,7ab][1]benzazepine hydrochloride] | – | – | – | – | – | – | – | only very slightly soluble in water
